Data taken from PubChem BioAssay (Tox21).
“And” between values parts separate entries of the source, which are not always exact repeats. Identical values can stand only once. This is a selection; strong and weak results do not stand in their true shares. Inconclusive results are not listed. The source made the active and inactive calls. Unless noted, calls follow the shape of the dose curve; as a rule, active = well fitted curve in the direction sought with a large enough effect in the repeat runs; inconclusive = weak or mixed curves; inactive = no such curve, though single readings can be large; an effect the other way counts as inactive or inconclusive.

By UniProt entry, the sequences of proteins in these tests, tags left out. Where a name states a change or a piece, a line headed by the entry shows the natural chain unless it says otherwise.
UniProt P19793: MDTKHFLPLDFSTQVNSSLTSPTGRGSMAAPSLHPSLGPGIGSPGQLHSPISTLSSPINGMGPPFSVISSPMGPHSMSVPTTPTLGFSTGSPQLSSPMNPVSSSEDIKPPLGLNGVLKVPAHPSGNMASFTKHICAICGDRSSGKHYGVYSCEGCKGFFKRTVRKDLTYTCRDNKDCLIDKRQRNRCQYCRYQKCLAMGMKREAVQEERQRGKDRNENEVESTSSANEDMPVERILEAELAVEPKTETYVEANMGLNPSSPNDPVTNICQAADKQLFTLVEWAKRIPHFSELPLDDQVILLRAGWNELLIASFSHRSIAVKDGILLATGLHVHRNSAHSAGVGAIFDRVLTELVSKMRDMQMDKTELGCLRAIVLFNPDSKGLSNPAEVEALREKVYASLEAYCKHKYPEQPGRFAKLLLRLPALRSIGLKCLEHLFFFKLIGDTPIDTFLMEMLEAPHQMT
UniProt Q96RI1: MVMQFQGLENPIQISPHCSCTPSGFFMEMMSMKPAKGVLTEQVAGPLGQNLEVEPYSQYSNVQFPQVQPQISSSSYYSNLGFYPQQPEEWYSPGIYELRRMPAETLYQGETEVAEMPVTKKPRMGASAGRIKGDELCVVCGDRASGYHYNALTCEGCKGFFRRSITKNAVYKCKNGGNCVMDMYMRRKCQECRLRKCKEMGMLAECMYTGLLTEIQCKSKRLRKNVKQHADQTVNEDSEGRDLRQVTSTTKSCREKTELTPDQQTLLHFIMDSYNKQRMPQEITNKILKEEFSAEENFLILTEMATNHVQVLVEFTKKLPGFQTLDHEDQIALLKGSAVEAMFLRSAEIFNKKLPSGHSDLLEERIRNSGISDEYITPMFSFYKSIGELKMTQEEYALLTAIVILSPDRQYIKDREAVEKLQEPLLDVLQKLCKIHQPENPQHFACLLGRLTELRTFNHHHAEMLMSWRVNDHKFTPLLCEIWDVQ
UniProt Q03181: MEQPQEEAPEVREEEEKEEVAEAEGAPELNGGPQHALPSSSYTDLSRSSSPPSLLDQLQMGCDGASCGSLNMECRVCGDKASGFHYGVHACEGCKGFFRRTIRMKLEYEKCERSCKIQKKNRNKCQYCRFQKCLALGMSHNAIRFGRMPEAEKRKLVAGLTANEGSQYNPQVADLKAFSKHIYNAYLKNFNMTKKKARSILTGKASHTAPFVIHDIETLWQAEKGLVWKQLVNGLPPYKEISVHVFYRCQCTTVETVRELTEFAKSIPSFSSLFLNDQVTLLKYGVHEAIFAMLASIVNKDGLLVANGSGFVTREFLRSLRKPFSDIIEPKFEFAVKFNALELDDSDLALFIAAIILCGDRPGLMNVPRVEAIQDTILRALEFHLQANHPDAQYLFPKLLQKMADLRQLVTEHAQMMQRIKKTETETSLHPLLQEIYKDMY

Assays:
[1] = molecular target: Nuclear receptor ROR-gamma (Homo sapiens) (UniProt P51449); experiment: qHTS assay to identify small molecule antagonists of the retinoid-related orphan receptor gamma (ROR-gamma) signaling pathway (AID 1159521;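 also: CHO cells with doxycycline inducible ROR-gamma driving an RORE luciferase reporter; top concentration of the series differs between compounds; % is scaled to controls: 0 for no effect and ±100 for the full control effect; nearly all actives have a fitted effect of over 50% in size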); conditions: Tet-on RORgamma CHO cells, RORE-luciferase, 16 h
[2] = qHTS assay to identify small molecule agonists of the AP-1 signaling pathway - cell viability counter screen (AID 1159525; calls by dose curve; also: nearly all actives have a fitted effect of over 55% in size); conditions: ME-180 AP-1-bla cells viability, ATP luminescence, 5 h
Method in brief: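 Luminescent ATP readout (Cell Titer Glo, 30 min RT), normalised to DMSO and tetra n-octyl ammonium bromide controls. Cells were ME-180 AP-1-bla in 0.5% dialyzed FBS Opti-MEM, with a 5 h, 37 °C compound exposure.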

[3] = qHTS assay to identify small molecule agonists of the AP-1 signaling pathway (AID 1159526; calls by dose curve; also: % is scaled to controls: 0 for no effect and ±100 for the full control effect); conditions: ME-180 (cervical carcinoma) AP-1-bla reporter, beta-lactamase FRET ratio, 5 h
[4] = molecular target: Retinoic acid receptor RXR-alpha (Homo sapiens) (UniProt P19793); experiment: qHTS assay to identify small molecule agonists of the RXR signaling pathway (AID 1159527; calls by dose curve; also: % is scaled to controls: 0 for no effect and ±100 for the full control effect; nearly all actives have a fitted effect of over 35% in size); conditions: HEK293T RXRa-UAS-bla, beta-lactamase ratio, 16 h
[5] = qHTS assay to identify small molecule agonists of the RXR signaling pathway - cell viability counter screen (AID 1159529); also: % is scaled to controls: 0 for no effect and ±100 for the full control effect; nearly all actives have a fitted effect of over 50% in size
Method in brief: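 Cell viability is measured by CellTiter-Glo luminescence, 30 min at room temperature, in wells already read for beta-lactamase. Engineered HEK 293T cells (RXR-alpha-UAS-bla) are dosed 16 hr at 37 C. Tetraoctyl ammonium bromide serves as positive control.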

[6] = qHTS assay to identify small molecule antagonists of the retinoid acid receptor (RAR) signaling pathway - cell viability counter screen (AID 1159551); conditions: C3RL4 cells viability, ATP luminescence (CellTiter-Glo), 6 h; also: % is scaled to controls: 0 for no effect and ±100 for the full control effect; nearly all actives have a fitted effect of over 35% in size
Method in brief: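 Seed C3RL4 cells; next day add compound, then retinol to 1 uM final; incubate 6 h at 37 C; add CellTiter-Glo; read luminescence after 30 min at RT.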

[7] = qHTS assay to identify small molecule antagonists of the peroxisome proliferator-activated receptor delta (PPARd) signaling pathway - cell viability counter screen (AID 743213); also: % is scaled to controls: 0 for no effect and ±100 for the full control effect; nearly all actives have a fitted effect of over 50% in size
Method in brief: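 Cytotoxicity counter screen: CellTiter-Glo luminescence read 30 min after addition, in the same wells as the reporter assay. There, PPARd UAS-bla HEK293H cells (3000/well) were treated 17 h at 37 C with compound and 300 nM L165041.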

[8] = molecular target: Bile acid receptor (Homo sapiens) (UniProt Q96RI1); experiment: qHTS assay to identify small molecule antagonists of the farnesoid-X-receptor (FXR) signaling pathway (AID 743217; active = well fitted inhibition curve with a large enough effect in the signal ratio in the repeat runs, not every such curve was filed as active; the % refers to the signal ratio; also: % is scaled to controls: 0 for no effect and ±100 for the full control effect); conditions: HEK293T FXR-UAS-bla, beta-lactamase ratio, CDCA-stimulated, 16 h; at 62.6 µM (top of the series) unless noted
Method in brief: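 In this cell-based antagonist screen, inhibition of CDCA-driven (50 uM final) UAS-beta-lactamase expression in HEK 293T cells was measured by FRET fluorescence following 16 h compound exposure at 37 °C.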

[9] = qHTS assay to identify small molecule agonists of the farnesoid-X-receptor (FXR) signaling pathway - cell viability counter screen (AID 743218); also: % is scaled to controls: 0 for no effect and ±100 for the full control effect; nearly all actives have a fitted effect of over 45% in size
Method in brief: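 After 16 h at 37 C with test compounds, FXR-bla HEK 293T cells were given LiveBLAzer B/G substrate for 2 h at RT and then CellTiter-Glo; luminescence was taken after 30 min.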

[10] = molecular target: Bile acid receptor (Homo sapiens) (UniProt Q96RI1); experiment: qHTS assay to identify small molecule agonists of the farnesoid-X-receptor (FXR) signaling pathway (AID 743220; active = well fitted activation curve with a large enough effect in the signal ratio in the repeat runs, not every such curve was filed as active; the % refers to the signal ratio; also: % is scaled to controls: 0 for no effect and ±100 for the full control effect); conditions: HEK293T FXR-UAS-bla, beta-lactamase FRET ratio, 16 h; at 62.6 µM (top of the series)
[11] = qHTS assay to identify small molecule antagonists of the farnesoid-X-receptor (FXR) signaling pathway - cell viability counter screen (AID 743221; active = well fitted cell-killing curve with a large enough effect in the repeat runs, not every such curve was filed as active; also: % is scaled to controls: 0 for no effect and ±100 for the full control effect; nearly all actives have a fitted effect of over 50% in size)
[12] = qHTS assay to identify small molecule antagonists of the vitamin D receptor (VDR) signaling pathway - cell viability counter screen (AID 743225); also: nearly all actives have a fitted effect of over 50% in size; also: potency is read from the fitted curve at half-maximal effect
Method in brief: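 Cells (VDR-UAS-bla HEK 293T) are plated, rested 4 h at 37C, dosed with compound and 3 nM final 1-alpha,25-dihydroxy vitamin D3, and incubated 16 h. Viability is taken from CellTiter-Glo luminescence in the reporter wells.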

[13] = qHTS assay to identify small molecule agonists of the NFkB signaling pathway - cell viability counter screen (AID 1159515; calls by dose curve; also: % is scaled to controls: 0 for no effect and ±100 for the full control effect; nearly all actives have a fitted effect of over 55% in size); conditions: NFkB-bla ME-180 viability, CellTiter-Glo luminescence, 5 h; at 61 µM (top of the series) unless noted
Method in brief: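 5 hr compound treatment of NFkB-bla ME-180 cells (2,000/well, seeded overnight beforehand), followed by reporter substrate for 1.5 hr. CellTiter-Glo added afterward; luminescence after 30 min RT.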

[14] = qHTS assay to identify small molecule agonists of the endoplasmic reticulum stress response signaling pathway (AID 1159516; active = well fitted activation curve with a large enough effect in the signal ratio in the repeat runs, not every such curve was filed as active; the % refers to the signal ratio; also: % is scaled to controls: 0 for no effect and ±100 for the full control effect); conditions: ESRE-bla HeLa, ER stress beta-lactamase reporter, 5 h; at 61 µM (top of the series) unless noted
Method in brief: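 Reporter HeLa cells (ESRE-beta-lactamase) underwent 5 hr compound incubation at 37 C and 5% CO2 in quantitative HTS format. Detection followed 2 hr of FRET substrate loading at room temperature.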

[15] = qHTS assay to identify small molecule agonists of the retinoic acid receptor (RAR) signaling pathway (AID 1159553); conditions: C3RL4 RARE luciferase reporter, agonist, 6 h; at 73.3 µM (top of the series) unless noted; also: % is scaled to controls: 0 for no effect and ±100 for the full control effect
Method in brief: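 Activation of retinol signaling was monitored via a RARE luciferase reporter in C3RL4 cells. After 6 hr compound treatment at 37 C, detection reagent was added for 30 min at room temperature before luminescence reading.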

[16] = molecular target: Peroxisome proliferator-activated receptor delta (Homo sapiens) (UniProt Q03181); experiment: qHTS assay to identify small molecule antagonists of the peroxisome proliferator-activated receptor delta (PPARd) signaling pathway (AID 743215; active = well fitted inhibition curve with a large enough effect in the signal ratio in the repeat runs, not every such curve was filed as active; the % refers to the signal ratio); conditions: HEK293H PPARd-UAS-bla, beta-lactamase FRET ratio, antagonist, 17 h; at 62 µM (top of the series)
Method in brief: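 With L165041 present at 300 nM final, compounds were incubated 17 h at 37 C on PPARd UAS-bla HEK293H cells. A FRET-based beta-lactamase substrate was then applied for 2 h at room temperature and fluorescence intensity recorded.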

[17] = qHTS assay to identify small molecule antagonists of the estrogen related receptor (ERR) signaling pathway - cell viability counter screen (AID 1224818)
Method in brief: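 In the same ERR cell assay, compound-treated wells (17.5 h, 37 C) were multiplexed with a fluorogenic viability reagent, CellTiter-Fluor, read after 30 min to flag cytotoxic substances.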

[18] = qHTS assay to identify small molecule antagonists of the estrogen related receptor (ERR) signaling pathway (AID 1224819)
Method in brief: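 qHTS in ERR cells, 2,000/well, 1536 format. Cpd (DMSO) added after 6 h settle, 18 h 37 C. One-Glo luminescence, 30 min RT.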

[19] = qHTS assay to identify small molecule agonists of the estrogen related receptor (ERR) signaling pathway (AID 1224820); conditions: ERR reporter cell line, luciferase agonist mode; at 46.1 µM (top of the series) unless noted; also: % is scaled to controls: 0 for no effect and ±100 for the full control effect
Method in brief: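 ERR reporter cells (NTP line) plated 2,000/well, incubated 6 h at 37 C/5% CO2, then pinned with compounds in DMSO and held 18 h at 37 C. One-Glo added; luminescence read after 30 min at room temperature.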

[20] = qHTS assay to identify small molecule antagonists of the estrogen related receptor signaling pathway with the pleiotropic PPARgamma coactivator (PGC) cell viability counter screen (AID 1224822; also: % is scaled to controls: 0 for no effect and ±100 for the full control effect)
Method in brief: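 Compounds in DMSO, with positive and negative controls, were applied to PGC/ERR cells (2,000/well) and left 17.5 h at 37 C before CellTiter-Fluor detection.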

[21] = at 76.8 µM (top of the series) unless noted
[22] = at 92.4 µM (top of the series) unless noted

O=C(Cl)Oc1ccccc1
inactive: activity change, negative = inhibition ([1]; at 92.4 µM (top of the series)) 10.5% | viability change, negative = cytotoxic [2, 21] -2.78% | activation [3, 21] -12.9% | activation ([4]; at 76.8 µM (top of the series)) -1.06% | Potency [5] | activity change, negative = cytotoxicity [6, 22] 0.0513%

NC(=O)Nc1ccc([As](=O)(O)O)cc1
inactive: Potency [7] | activity change, negative = inhibition [8] 2.37% and 0.283% | Potency [9] | activation [10] -1.35% and -2.28% | Potency [11] | Potency [12] | activity, negative = cytotoxic [13] 1.17% and 1.01% | activation [14] 1.8% and 0.109% | activity change, negative = inhibition ([1]; at 42.5 µM (top of the series)) 11.2% | activity change, negative = inhibition ([1]; at 92.4 µM (top of the series)) -16% | viability change, negative = cytotoxic ([2]; at 35.3 µM (top of the series)) -25.2% | viability change, negative = cytotoxic ([2]; at 76.8 µM (top of the series)) 2.46% | activation ([3]; at 35.3 µM (top of the series)) -1.42% | activation ([3]; at 76.8 µM (top of the series)) -7.67% | activation ([4]; at 35.3 µM (top of the series)) 10.4% | activation ([4]; at 76.8 µM (top of the series)) 1.72% | Potency [5] | activity change, negative = cytotoxicity ([6]; at 42.5 µM (top of the series)) 1.62% | activity change, negative = cytotoxicity ([6]; at 92.4 µM (top of the series)) -0.117% | activation [15] 1.07% and -0.0498%

CC(C)OP(=S)(OC(C)C)SCCNS(=O)(=O)c1ccccc1
active: Potency [12] 49 µM
inactive: Potency [9] | Potency [11] | activity, negative = cytotoxic [13] -3.43% | activation [14] 1% | viability change, negative = cytotoxic [2, 21] -5.82% | activity change, negative = cytotoxicity [6, 22] 1.15%

ClP(Cl)c1ccccc1
inactive: Potency [7] | ratio activity, negative = inhibition [16] 2.46% | Potency [9] | Potency [11] | Potency [12] | activity, negative = cytotoxic [13] 11.7% | activation [14] 0% | activity change, negative = inhibition ([1]; at 92.4 µM (top of the series)) -11% | viability change, negative = cytotoxic [2, 21] 0.642% | activation [3, 21] -3.47% | activation ([4]; at 76.8 µM (top of the series)) 4.71% | Potency [5] | activity change, negative = cytotoxicity [6, 22] -2.43% | activation [15] -0.498%

O=C(Cl)OCCOC(=O)Cl
inactive: activity change, negative = inhibition ([1]; at 92.4 µM (top of the series)) 11.9% | viability change, negative = cytotoxic [2, 21] 3.84% | activation [3, 21] -4.53% | activation ([4]; at 76.8 µM (top of the series)) 0.152% | Potency [5] | activity change, negative = cytotoxicity [6, 22] -2.34%

CN(C(=O)Cc1ccc(Cl)c(Cl)c1)[C@H]1CCCC[C@@H]1N1CCCC1
inactive: Potency [17] | Potency [18] | activation [19] 14.7% and 14.2% | Potency [20]

O=[N+]([O-])c1ccc([N+](=O)[O-])cc1
inactive: viability change, negative = cytotoxic [2, 21] -3.23% | Potency [5]

CCC(C)(OOC(C)(C)C)OOC(C)(C)C
inactive: viability change, negative = cytotoxic [2, 21] 2.27% [at 15.8 µM] | activation [3, 21] 8.35% [at 15.8 µM] | activation ([4]; at 15.8 µM (top of the series)) 5.65% | activity change, negative = cytotoxicity [5] -1.76% [at 15.8 µM] | activity change, negative = cytotoxicity [6, 22] -0.0644% [at 19 µM]
